# Measured values from ChEMBL document CHEMBL1127769, “Synthesis of new pyrazolo[4,3-e]1,2,4-triazolo[1,5-c] pyrimidine and 1,2,3-triazolo[4,5-e]1,2,4-triazolo[1,5-c] pyrimidine displaying potent and selective activity as A2a adenosine receptor antagonists” (Bioorg Med Chem Lett, 1994).
# Protein sequences, listed by entry. Tags and fused reporters are not part of them.
# UniProt P25099, whole entry: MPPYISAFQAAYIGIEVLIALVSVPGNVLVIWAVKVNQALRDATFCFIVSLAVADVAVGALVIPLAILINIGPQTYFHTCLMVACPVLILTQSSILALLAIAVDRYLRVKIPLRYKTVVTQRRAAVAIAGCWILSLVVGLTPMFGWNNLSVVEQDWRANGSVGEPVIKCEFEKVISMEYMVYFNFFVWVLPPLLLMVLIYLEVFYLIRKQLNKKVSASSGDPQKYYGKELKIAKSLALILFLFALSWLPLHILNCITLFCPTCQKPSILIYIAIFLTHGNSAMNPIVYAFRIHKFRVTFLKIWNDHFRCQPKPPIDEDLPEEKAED
# Target: Adenosine receptor A1 (Rattus norvegicus, UniProt P25099)
# Experiment: biochemical
smiles,measurement,value
Nc1nc2ccc(Cl)cc2c2nc(-c3ccco3)nn12 [CGS-15943],Ki,6.4 nM
